Values quoted from earlier work as cited in PMC12305498.

Biological target: RHOGDI (Homo sapiens) (UniProt P52565)

Kd: 5.7 µM
Substance: RAC (from UniProt P63000)
